The list shows a part of the results, in another mix than the full data. Calls of active or inactive are those of the source. Calls come from the whole dose curve; as a rule, active = well fitted inhibition curve with a large enough effect; inconclusive = small, poorly fitted or top-dose-only effect; inactive = no such curve, though single readings can be large or run the other way.
% is set by controls: 0 for no effect and ±100 for the full control effect.

Protein sequences, listed by entry. Tags and fused reporters are not part of them.
UniProt O75874, whole entry R132H: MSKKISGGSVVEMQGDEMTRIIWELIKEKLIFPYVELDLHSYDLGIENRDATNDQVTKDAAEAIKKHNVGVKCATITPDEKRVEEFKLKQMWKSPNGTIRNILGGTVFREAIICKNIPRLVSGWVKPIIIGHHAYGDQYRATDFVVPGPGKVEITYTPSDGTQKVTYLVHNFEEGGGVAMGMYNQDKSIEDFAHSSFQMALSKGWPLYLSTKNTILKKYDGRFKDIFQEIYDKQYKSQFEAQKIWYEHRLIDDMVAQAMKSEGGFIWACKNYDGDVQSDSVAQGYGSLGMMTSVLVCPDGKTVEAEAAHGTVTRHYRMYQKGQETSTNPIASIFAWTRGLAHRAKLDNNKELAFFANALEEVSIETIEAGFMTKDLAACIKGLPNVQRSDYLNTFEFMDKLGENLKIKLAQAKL

This experiment deals with Isocitrate dehydrogenase [NADP] cytoplasmic (Homo sapiens) (UniProt O75874). The experiment can be described thus: qHTS for Inhibitors of mutant isocitrate dehydrogenase 1 (IDH1): qHTS. Note: nearly all actives have a fitted effect of over 65% in size. The following applies: IDH1-R132H enzyme, NADPH consumption, diaphorase/resazurin fluorescence; at 76.6 µM (top of the series). From the text:
Unbiased genomic sequencing for 22 glioma genomes found recurrent mutation of isocitrate dehydrogenase 1 (IDH1) on chromosome 2q33-a gene encoding the cytosolic isoform of IIDH1associated with the tricarboxylic acid cycle (TCA) that catalyzes the oxidative decarboxylation of isocitrate, yielding alpha-ketoglutarate and CO2 via NADP+ to NADPH conversion. Subsequent studies confirmed the recurrent IDH mutations in up to 70% of secondary gliomas and in 10% of AML cases. […] This in effect defines IDH1 as an oncogene, and provides an extraordinary opportunity to discover chemical probes against mutant IDH1 that may translate into much needed new therapies for glioma and AML patients. […] NIH Chemical Genomics Center [NCGC] NIH Molecular Libraries Probe Centers Network [MLPCN] […]
IDH1-R132H (0.5 ug/mL) was dispensed into black, solid-bottom 1536-well plates at 3 uL/well in 20 mM Tris-HCl (pH 7.5), 150 mM NaCl, 10 mM MgCl2, 4 mM beta-ME, and 0.05% protease-free BSA. […] A pre-read was run on the Viewlux to identify fluorescent compounds (540 nm excitation filter, 598 nm emission filter, bodipy mirror and 2 second exposure). […] The plates were measured on an Envision plate reader for fluorescence signal using a 540 nm excitation filter and 590 nm emission filter with 10 flashes. […] Concentration-response curves were fitted to the signals arising from the resulting fluorescence. […]
For the molecule `CCC(=O)N(c1ccccc1)C1(COC)CCN(CCc2cccs2)CC1`, the activity change, negative = inhibition was inactive: -16.9%.
The value for `CCC(=O)N(c1ccccc1)C1(COC)CCN(CCn2nnn(CC)c2=O)CC1` was inactive: -5.64%.

The record behind these values is PubChem BioAssay AID602179 (National Center for Advancing Translational Sciences (NCATS), 2012).
